Where two headings read alike, the source gives them in different places.
Key:
[1] = system: complex I (NADH dehydrogenase); conditions: 100 μmol/L drug, mean ± SD, 30 min at 30 °C
[2] = system: complex IV (cytochrome c oxidase); conditions: 100 μmol/L drug, mean ± SD, 30 min at 30 °C
[3] = system: complex II-linked ATP content; conditions: 100 μmol/L, mean ± SD
[4] = system: complex II+III (succinate cytochrome c oxidoreductase); conditions: 100 μmol/L drug, mean ± SD, 30 min at 30 °C
[5] = system: complex II-linked ATP kinetics; conditions: mean ± SD
[6] = system: complex I-linked ATP kinetics; conditions: control = 100%, mean ± SD
citrate synthase (CS) = molecular target: T1, citrate synthase (CS) (Sus scrofa, UniProt P00889); conditions: mean ± SD, N = 3
T1 sequence (P00889 28-464): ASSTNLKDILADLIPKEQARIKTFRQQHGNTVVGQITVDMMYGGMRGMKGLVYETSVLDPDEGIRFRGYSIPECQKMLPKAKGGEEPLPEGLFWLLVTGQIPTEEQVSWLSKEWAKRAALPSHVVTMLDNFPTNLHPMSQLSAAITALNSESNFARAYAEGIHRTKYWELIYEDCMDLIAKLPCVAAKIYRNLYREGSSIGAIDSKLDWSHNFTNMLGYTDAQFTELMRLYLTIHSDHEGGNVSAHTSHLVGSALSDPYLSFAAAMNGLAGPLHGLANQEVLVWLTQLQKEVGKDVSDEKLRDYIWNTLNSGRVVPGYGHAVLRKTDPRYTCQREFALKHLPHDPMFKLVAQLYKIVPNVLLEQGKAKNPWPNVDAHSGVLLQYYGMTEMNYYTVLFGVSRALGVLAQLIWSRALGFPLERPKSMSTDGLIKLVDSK

By UniProt entry, the sequences of proteins in these tests, tags left out.
UniProt Q6Q2J0, whole entry: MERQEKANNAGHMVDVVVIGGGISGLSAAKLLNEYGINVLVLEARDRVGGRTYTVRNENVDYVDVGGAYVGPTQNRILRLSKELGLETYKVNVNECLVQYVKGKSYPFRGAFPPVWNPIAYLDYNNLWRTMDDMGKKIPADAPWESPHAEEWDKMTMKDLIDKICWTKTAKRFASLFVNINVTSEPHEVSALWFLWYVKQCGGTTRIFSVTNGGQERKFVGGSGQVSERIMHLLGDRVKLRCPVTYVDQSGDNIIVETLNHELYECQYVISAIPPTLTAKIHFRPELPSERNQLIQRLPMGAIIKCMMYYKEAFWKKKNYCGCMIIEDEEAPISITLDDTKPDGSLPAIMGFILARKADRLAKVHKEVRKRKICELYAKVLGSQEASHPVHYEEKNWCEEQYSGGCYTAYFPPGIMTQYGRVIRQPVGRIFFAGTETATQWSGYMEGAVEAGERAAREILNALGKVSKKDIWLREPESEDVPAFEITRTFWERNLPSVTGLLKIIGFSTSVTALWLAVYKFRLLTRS
UniProt Q6PLK3, whole entry: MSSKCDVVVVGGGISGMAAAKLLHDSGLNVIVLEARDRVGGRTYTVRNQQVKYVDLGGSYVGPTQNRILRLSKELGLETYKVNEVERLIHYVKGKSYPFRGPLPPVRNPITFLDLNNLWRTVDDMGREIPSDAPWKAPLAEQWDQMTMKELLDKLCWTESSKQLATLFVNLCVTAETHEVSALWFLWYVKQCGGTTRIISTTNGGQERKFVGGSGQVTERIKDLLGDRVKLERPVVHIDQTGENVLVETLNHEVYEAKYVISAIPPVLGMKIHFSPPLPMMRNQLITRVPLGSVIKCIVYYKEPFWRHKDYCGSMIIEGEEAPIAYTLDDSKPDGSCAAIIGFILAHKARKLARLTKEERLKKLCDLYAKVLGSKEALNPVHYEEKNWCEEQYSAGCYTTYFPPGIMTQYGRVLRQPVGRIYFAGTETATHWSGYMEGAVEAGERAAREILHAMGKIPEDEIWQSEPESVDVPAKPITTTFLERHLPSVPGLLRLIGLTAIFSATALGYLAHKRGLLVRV

MAO-A = MAO-A (Sus scrofa, UniProt Q6Q2J0); assay: MAO-A activity, radiolabeled [3H]serotonin substrate, pig brain mitochondria; assay type: biochemical; conditions: mean ± SEM, four measurements
MAO-B = MAO-B (Sus scrofa, UniProt Q6PLK3); assay: MAO-B activity, radiolabeled [14C]PEA substrate, pig brain mitochondria; assay type: biochemical; conditions: mean ± SEM, four measurements
[7] = molecular target: T2, malate dehydrogenase (MDH) (Sus scrofa, UniProt P00346); conditions: mean ± SD, N = 3
T2 sequence (P00346 25-338): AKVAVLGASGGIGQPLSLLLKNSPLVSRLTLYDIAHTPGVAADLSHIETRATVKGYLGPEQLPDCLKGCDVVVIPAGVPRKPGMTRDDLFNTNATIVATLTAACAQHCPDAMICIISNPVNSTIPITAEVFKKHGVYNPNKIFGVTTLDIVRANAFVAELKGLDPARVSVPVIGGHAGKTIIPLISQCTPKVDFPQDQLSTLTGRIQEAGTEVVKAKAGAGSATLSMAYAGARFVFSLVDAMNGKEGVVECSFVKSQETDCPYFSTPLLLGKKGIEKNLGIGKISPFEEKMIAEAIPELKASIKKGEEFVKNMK

Row | complex IV activity (relative to control) [2] [%] | complex II+III activity (relative to control) ([4]; listed as PAR) [%] | CS (% of control) (citrate synthase (CS); 10 μM) | CS (% of control) (citrate synthase (CS); 100 μM) | Hill Slope, MAO-A (MAO-A) | Residual Activity, MAO-A (MAO-A) [rel.u.] | Hill Slope, MAO-B (MAO-B) | Residual Activity, MAO-B (MAO-B) [rel.u.] | complex II+III activity (relative to control) [4] [%] | MDH (% of control) ([7]; 10 μM) | MDH (% of control) ([7]; 100 μM) | Compound | complex I activity (relative to control) [1] [%] | complex II-linked ATP content (relative to control) [3] [%] | complex II-linked ATP kinetics (relative to control) ([5]; 100 μmol/L) [%] | complex I-linked ATP kinetics (relative to control) ([6]; 10 μmol/L) [%] | complex II-linked ATP kinetics (relative to control) ([5]; 50 μmol/L, control = 100%) [%] | complex I-linked ATP kinetics (relative to control) ([6]; 50 μmol/L) [%]
1 | 61.1 ± 3.1 | 64.4 ± 4.5 |  |  |  |  |  |  |  |  |  | Fc1ccc([C@@H]2CCNC[C@H]2COc2ccc3c(c2)OCO3)cc1 | 33.0 ± 4.4 | 88.6 ± 4.0 | 82.1 ± 0.1 | 80.4 ± 5.1 |  | 
2 | 34.9 ± 1.7 |  | 102.4 ± 3.60 % of control | 97.2 ± 1.52 % of control | 0.99 ± 0.29 | 0.005 ± 0.057 | 1.13 ± 0.14 | 0.038 ± 0.032 | 94.4 ± 2.7 | 98.0 ± 6.10 % of control | 99.6 ± 2.64 % of control | CN(C)CCC[C@@]1(c2ccc(F)cc2)OCc2cc(C#N)ccc21 [escitalopram] | 43.9 ± 4.7 |  |  |  | 81.5 ± 4.5 | 81.6 ± 5.1

Reference: paper PMC10294837 (2023)
